Here are results for one substance from patent US20260384488A1, “MELANOCORTIN AND GLP-1 RECEPTOR AGONISTS AND METHODS OF USE” (published 2026).

By UniProt entry, the sequences of proteins in these tests, tags left out. Residues count along the entry.
UniProt P43220, 24-463 limits assumed: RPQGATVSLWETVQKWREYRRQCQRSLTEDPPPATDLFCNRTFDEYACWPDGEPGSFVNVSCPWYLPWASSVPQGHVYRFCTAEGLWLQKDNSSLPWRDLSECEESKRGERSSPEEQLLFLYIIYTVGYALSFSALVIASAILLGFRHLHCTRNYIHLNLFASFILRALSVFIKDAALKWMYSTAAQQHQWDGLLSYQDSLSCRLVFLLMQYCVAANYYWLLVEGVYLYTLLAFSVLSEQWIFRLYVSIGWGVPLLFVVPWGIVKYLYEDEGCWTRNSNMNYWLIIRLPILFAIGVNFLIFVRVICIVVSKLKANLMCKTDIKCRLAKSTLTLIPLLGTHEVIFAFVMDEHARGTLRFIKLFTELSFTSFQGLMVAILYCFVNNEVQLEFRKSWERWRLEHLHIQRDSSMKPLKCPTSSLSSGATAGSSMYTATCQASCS

Assay [1] in a line: Dose escalation experiment, food intake in diet-induced obese Sprague Dawley rats. Particulars: subcutaneous, 60% HF diet.
The nature of assay [2]: 16-day treatment experiment with increasing doses in diet-induced obese Wistar rats. The following applies: 5 nmol/kg/day 4 days, 10 nmol/kg/day 4 days, 25 nmol/kg/day 8 days, subcutaneous, 60% HF diet.
A short description of assay [3]: 11-day treatment experiment at stable daily dosing (10 nmol/kg/day) in diet-induced obese Sprague Dawley rats. The following applies: 10 nmol/kg/day for eleven days, subcutaneous, 60% HF diet.
In assay [4] the target is T1, human GLP-1R (Homo sapiens, UniProt P43220). Description: In vitro receptor agonism at hGLP-1R (cAMP FRET, H188 HEK293 cells). The following applies: 20 min incubation.
Assay [5] has as its target T1, human GLP-1R. The assay can be described thus: Competitive binding assay at hGLP-1R (SPR). Particulars: 0.1 nM-150 nM.

For the substance “HsQGTFTSDLSKYLEEEAVREFIAWLKNGGPSYSMEHFRWGKPV-NH2”, the “reduction in food intake” value is 54.7% in assay [1] (2 nmol/kg/day for 3 days), 64.8% in assay [1] (5 nmol/kg/day for 3 days) and 62.9% in assay [1] (10 nmol/kg/day for 3 days). Moreover, the “reduction in body weight relative to pre-treatment” value in assay [2] is on record as 4.7%. In assay [2], the “reduction in calorie intake” value is over 30%. Also, in assay [3], the “average reduction in food intake” value came to 40.9%. Besides, in assay [3], the “reduction in body weight” value came to 5.4%. The “EC50 (% change in FRET ratio tracking levels of cAMP)” value at human GLP-1R [4] is listed as 4.08 nM. Besides, the Kd (in general, the equilibrium constant for the complex coming apart) at human GLP-1R [5] worked out at 9.9 nM.
